# Measurements: PubChem BioAssay AID529 (NMMLSC, 2006)
# By UniProt entry, the sequences of proteins in these tests, tags left out.
# UniProt P13612, whole entry, looked up: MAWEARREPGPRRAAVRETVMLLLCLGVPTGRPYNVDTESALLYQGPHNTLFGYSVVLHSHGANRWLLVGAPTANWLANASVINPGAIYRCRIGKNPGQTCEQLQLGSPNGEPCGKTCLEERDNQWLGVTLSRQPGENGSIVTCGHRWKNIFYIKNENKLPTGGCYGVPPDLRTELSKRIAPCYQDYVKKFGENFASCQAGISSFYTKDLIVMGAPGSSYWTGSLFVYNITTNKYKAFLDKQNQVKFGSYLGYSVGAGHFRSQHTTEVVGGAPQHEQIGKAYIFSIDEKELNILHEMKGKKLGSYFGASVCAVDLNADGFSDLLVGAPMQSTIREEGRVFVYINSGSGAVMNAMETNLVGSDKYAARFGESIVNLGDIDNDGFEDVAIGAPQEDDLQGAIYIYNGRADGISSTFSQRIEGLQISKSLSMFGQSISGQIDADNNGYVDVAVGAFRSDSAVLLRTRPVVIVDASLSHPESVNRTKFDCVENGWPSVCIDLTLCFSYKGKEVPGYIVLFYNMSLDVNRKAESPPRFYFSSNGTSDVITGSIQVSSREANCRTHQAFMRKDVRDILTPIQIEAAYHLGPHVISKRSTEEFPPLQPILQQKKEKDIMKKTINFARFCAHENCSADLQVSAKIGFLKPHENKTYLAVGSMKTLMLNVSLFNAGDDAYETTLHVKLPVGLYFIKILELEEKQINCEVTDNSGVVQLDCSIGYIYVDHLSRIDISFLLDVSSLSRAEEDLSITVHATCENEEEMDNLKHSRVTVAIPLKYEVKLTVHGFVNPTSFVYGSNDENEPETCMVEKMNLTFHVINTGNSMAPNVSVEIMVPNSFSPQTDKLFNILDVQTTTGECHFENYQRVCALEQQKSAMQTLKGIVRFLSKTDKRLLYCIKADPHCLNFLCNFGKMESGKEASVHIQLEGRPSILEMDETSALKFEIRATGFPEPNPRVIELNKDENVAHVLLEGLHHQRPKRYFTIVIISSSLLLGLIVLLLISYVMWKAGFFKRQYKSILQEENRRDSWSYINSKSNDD
# Only a part is listed here, and it is no random draw. Inconclusive results are not listed. Activity calls are given as the source filed them.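 Rule for the calls: active = inhibition above 50%; inconclusive = compound itself fluorescent, judged against control cell fluorescence; inactive = the rest.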
# Biological target: Integrin alpha-4 (Homo sapiens) (UniProt P13612)
# Assay: blockers of LDV-FITC ligand binding on VLA-4 – Jurkat cells, Mn2+ activated, primary screen (AID 529);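 note: 0% = Mn2+ stimulated cells lacking compound and 100% = ligand binding without Mn2+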
# Settings: LDV-FITC binding with Mn2+, flow cytometry, hits give high values, screened at 10 µM (by protocol), 100% = Mn2+-driven binding gain fully reversed
row,SMILES,inhibition
1,N#CC1(Nc2ccccc2)CCN(CCc2ccccc2)CC1,inactive: 3%
2,Fc1ccccc1NC1CCN(Cc2ccccc2)CC1,inactive: -22%
